The values that follow come from patent US20080045564A1 (priority 2006, published 2008).

Protein sequences, listed by entry. Tags and fused reporters are not part of them. Lines headed by an entry give the natural chain unless they say otherwise; changes in a name come on top.
UniProt P05181: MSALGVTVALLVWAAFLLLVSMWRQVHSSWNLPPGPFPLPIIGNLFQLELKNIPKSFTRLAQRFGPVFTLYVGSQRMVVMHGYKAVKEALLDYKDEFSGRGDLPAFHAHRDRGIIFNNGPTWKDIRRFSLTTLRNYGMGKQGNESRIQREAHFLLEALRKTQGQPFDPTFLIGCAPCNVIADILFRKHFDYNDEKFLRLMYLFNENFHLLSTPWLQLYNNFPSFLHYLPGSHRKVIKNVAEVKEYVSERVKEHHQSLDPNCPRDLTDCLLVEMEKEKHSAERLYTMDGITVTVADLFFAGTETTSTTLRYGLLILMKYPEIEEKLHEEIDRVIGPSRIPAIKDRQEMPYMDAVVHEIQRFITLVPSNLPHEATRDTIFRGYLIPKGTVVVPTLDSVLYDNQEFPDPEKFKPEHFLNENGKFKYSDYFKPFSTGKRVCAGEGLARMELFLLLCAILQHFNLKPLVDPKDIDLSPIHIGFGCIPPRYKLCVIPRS
UniProt P33261, whole entry: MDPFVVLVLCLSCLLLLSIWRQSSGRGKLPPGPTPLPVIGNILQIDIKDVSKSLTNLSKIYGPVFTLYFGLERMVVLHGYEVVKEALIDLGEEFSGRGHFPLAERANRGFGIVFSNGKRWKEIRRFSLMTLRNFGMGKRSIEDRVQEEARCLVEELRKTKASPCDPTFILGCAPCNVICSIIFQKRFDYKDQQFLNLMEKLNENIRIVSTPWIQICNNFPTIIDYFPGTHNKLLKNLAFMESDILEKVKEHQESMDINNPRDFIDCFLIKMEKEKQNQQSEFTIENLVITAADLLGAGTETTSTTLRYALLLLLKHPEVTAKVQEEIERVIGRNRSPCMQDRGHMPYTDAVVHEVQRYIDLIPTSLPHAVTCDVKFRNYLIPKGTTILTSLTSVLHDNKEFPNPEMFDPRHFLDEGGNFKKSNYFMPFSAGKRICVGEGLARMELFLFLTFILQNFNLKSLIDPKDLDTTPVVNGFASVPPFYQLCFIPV

Broadly, the Km is the substrate concentration at which the rate is half of its maximum.

One data set addresses recombinant human CYP2E1 (Homo sapiens, UniProt P05181). The settings on record: 30 min.
Data set [1] deals with recombinant human CYP2C19 (Homo sapiens, UniProt P33261). The settings on record: read-out: KM for 3-hydroxylation of quinine by CYP2C19; recombinant human CYP2C19 in human B lymphoblastoid cells; ± s.d.; Zhao et al.; cited from earlier work.
Another data set has as its system human CYP1A2. Conditions: due to increased mRNA expression levels; Bapiro et al.; cited from earlier work.

SMILES strings stand for the structures.

Regarding `C=C[C@H]1C[N@@]2CC[C@H]1C[C@H]2[C@H](O)c1ccnc2ccc(OC)cc12` [quinine, cinchonan-9-ol, 6′-methoxy-, (8a,9R)-], on recombinant human CYP2E1, the Substrate stood at 0. In addition, in data set [1], the Km was 46.3 ± 7.8 µM. For the same molecule, the “induction of human CYP1A2 activity” value with human CYP1A2 was “induced”.
